Test results taken from patent US20120270819A1, “USE OF COMPOUNDS WITH SGLT-1/SGLT-2 INHIBITOR ACTIVITY FOR PRODUCING MEDICAMENTS FOR TREATMENT OF BONE DISEASE” (SANOFI, priority 2009, published 2012).

The chains behind the UniProt entries cited, without tags or fusion partners.
UniProt P11170, whole entry: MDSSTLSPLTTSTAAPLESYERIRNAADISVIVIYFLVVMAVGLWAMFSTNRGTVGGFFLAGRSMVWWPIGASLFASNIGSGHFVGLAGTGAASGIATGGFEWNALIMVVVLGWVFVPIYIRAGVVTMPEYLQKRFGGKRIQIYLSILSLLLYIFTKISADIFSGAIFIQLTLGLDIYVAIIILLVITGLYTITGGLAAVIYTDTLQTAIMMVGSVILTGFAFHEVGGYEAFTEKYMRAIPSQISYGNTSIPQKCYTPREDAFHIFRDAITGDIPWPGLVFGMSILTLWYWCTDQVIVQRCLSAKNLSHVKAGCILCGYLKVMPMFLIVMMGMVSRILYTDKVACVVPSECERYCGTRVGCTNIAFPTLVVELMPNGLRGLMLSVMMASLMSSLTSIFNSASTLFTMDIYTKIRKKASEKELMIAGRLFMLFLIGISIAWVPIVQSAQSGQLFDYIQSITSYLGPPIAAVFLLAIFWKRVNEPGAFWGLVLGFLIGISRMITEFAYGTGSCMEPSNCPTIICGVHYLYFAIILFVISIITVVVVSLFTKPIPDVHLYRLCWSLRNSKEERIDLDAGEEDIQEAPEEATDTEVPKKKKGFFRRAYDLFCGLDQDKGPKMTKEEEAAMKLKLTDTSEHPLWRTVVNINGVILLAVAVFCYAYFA

Molecular target: SGLT Brush Border Membrane (Oryctolagus cuniculus, UniProt P11170)
Test: Glucose uptake by brush border membrane vesicles (transport assay)
Type: biochemical
Conditions: read-out: IC50 SGLT Brush Border Membrane; examples of Formula III; rabbit small intestine vesicles

IC50 [nM] | SMILES
400 | Cc1cc(O)c(C(=O)CCc2ccc3occc3c2)c(O[C@@H]2O[C@H](CO)[C@H](F)[C@H](O)[C@H]2O)c1
700 | OC[C@H]1O[C@@H](Oc2ccccc2Cc2ccccc2)[C@H](O)[C@@H](O)[C@@H]1F
500 | COc1ccc(Cc2ccccc2O[C@@H]2O[C@H](CO)[C@@H](F)[C@H](O)[C@H]2O)cc1
